Source: US6335176B1, “Incorporation of phosphorylation sites” (Pharmacopeia, Inc., priority 1998, dated 2002)

Biological target: β2-adrenergic receptor (Homo sapiens, UniProt P07550)
Assay: Receptor binding of 33P-labeled alprenolol derivative to cells expressing the receptor
Conditions: 33P-labeled ligand, FIG. 8

specific binding to its receptor: bound specifically
Substance: N-α-acetyl-S-[alprenolol amido-(6-aminothioacetyl)hexonyl](SEQ ID NO. 7) cys-ser-arg-arg-ala-[^33PO3]phosphoser-val-tyr-amide [alprenolol derivative]
